AlphaSeq binding of Ab-91 heavy chain variants to a spike HR2 peptide

The measurements come from Engelhart et al. 2022 (doi:10.1038/s41597-022-01779-4) through the FLAb antibody collection.

Antigen: PDVDLGDISGINAS, a 14-residue peptide of the SARS-CoV-2 spike HR2 region.

The variants keep the light chain, the linker and the frameworks of Ab-91 (scFv order VL, three GGGGS repeats, VH).
VL: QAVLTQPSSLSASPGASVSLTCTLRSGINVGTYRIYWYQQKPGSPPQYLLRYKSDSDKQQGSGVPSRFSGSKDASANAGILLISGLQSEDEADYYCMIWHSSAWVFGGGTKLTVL
VH: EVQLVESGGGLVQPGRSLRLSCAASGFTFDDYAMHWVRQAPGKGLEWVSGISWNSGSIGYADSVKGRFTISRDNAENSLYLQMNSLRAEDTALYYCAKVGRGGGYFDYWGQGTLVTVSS

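The parent was found by panning a naive human phage display library on the peptide. The library (AAYL51) carries one to three amino acid substitutions per variant, with no insertions or deletions. In AlphaSeq, yeast of one mating type display the scFv and yeast of the other type display the target. Binding brings cells together so that they mate, and sequencing counts the barcode pairs among the diploids. Each replicate has its own calibration line, from reference interactions of the BCL2 family. The assay was run in three technical replicates.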

Each variant is given by its three heavy chain CDRs, as the data file delimits them; those of the parent are GFTFDDYAMH, GISWNSGSIGYADSVK, VGRGGGYFDY.
Affinities are written as log10 Kd with Kd in nM; a lower number is a better binder.
A mean of the replicates is given; it leaves out those without a signal.
An entry "nd" has no value in the source: the pair was not observed among the diploids in that replicate. This suggests poor binding but is not conclusive.

For QFTFDDYAMH, GISWNSGSIGCADSVK, VDRGGGYFDY, the assay gave nd, 5.75, nd (controls 0 of 9).
For GFTFHDYAMH, GISWNSYSIGYADSVK, VGRGGEYFDY, the assay gave nd, nd, nd (controls 0 of 9).
For GFTFDDYAMH, GISCNSGSLGYSDSVK, VGRGGGYFDY, the assay gave 3.12, 3.34, 3.97 (mean 3.48; controls 1 of 9).
For KFTFDDYAMH, SISKNSGSIGYADSVK, VGRGGGYFDY, the assay gave nd, 4.36, nd (controls 1 of 9).
For GFVFDDYATH, GISWNSGSIGYADSVK, VGRSGGYFDY, the assay gave 3.75, 4.57, nd (mean 4.16; controls 2 of 9).
For GFTFDDYAMH, GISWPSGGIGYADLVK, VGRGGGYFDY, the assay gave 4.80, 4.06, 4.79 (mean 4.55; controls 5 of 9).
For KFTFEDYAMH, GISWNSGSIGYADSVK, VRRGGGYFDY, the assay gave 3.09, nd, 3.47 (mean 3.28; controls 1 of 9).
For GFTFDDLAMH, GIPWNSGSIGYADSVK, VGRGGGYFDY, the assay gave nd, nd, nd (controls 0 of 9).
For GFCFDDYAMH, GISWNSGSIGHADSVK, VGRGGGYFDY, the assay gave nd, nd, nd (controls 0 of 9).
For GFTFDDYAMH, GISWNSGSIGYVDSVK, AGRGGGYFKY, the assay gave nd, nd, nd (controls 0 of 9).
For GFTFDDTAMH, GISWNSGSIGYADSSK, VGRSGGYFDY, the assay gave 5.47, 5.18, 4.98 (mean 5.21; controls 2 of 9).
For GFFHDDYAMY, GISWNSGSIGYADSVK, VGRGGGYFDY, the assay gave nd, nd, nd (controls 2 of 9).
For GFTFDDYAMH, GGSWNFGSIGYADSVK, VGNGGGYFDY, the assay gave 3.81, nd, nd (controls 2 of 9).
For GFTFDDYAMH, GISWGSGSGKYADSVK, VGRGGGYFDY, the assay gave nd, 3.28, nd (controls 4 of 9).
For GFTFWDYHMH, GISWNSGSIGYADSVK, VGFGGGYFDY, the assay gave nd, nd, nd (controls 0 of 9).
For GDWFDDYAMH, GISWNSGSIGYADSVK, VGRAGGYFDY, the assay gave nd, 4.05, nd (controls 1 of 9).
For GFTFDDYQMH, GISWNSGSIGYADSFK, VGRGGGYFDY, the assay gave 2.33, 2.30, 1.73 (mean 2.12; controls 1 of 9).
For GFTFDDYDMH, GISWNSGSIGYMDSVK, VGRGGGLFDY, the assay gave nd, nd, nd (controls 0 of 9).
For GFTFDDYAMH, GISWNWGSIRYADMVK, VGRGGGYFDY, the assay gave 4.51, 5.60, 4.73 (mean 4.95; controls 6 of 9).
For GFTFDDWAMH, GISWNSGSIDYADSVK, VGRGGGYFTY, the assay gave 5.16, 6.45, nd (mean 5.80; controls 5 of 9).
For GFTFDDYAMH, GISWNSGSIGYADSVK, VAWGGKYFDY, the assay gave 3.35, 3.54, nd (mean 3.45; controls 0 of 9).
For GFTFDDYAMH, GISWNSGSIGYADSVG, VGRGGGYFDY, the assay gave 1.90, 2.02, 2.19 (mean 2.04; controls 2 of 9).
For GFTFDDYAMH, GISWNSGSIGYADSVT, VERGGGYFDY, the assay gave nd, nd, nd (controls 0 of 9).
For GFTFDDYAMH, GISWPSGSIGYADSVK, VGRGGGYFPW, the assay gave 3.93, nd, 4.13 (mean 4.03; controls 1 of 9).
For GFTFDDYAMH, GISWNSGSIGYADGVK, VGDGGGYFDY, the assay gave 2.85, 2.49, 2.19 (mean 2.51; controls 1 of 9).
For GFTFDDYAMH, GISWNSHSIGYVDSVK, VGRGGGGFDY, the assay gave 2.95, 2.93, 2.46 (mean 2.78; controls 3 of 9).
For GFTFDDYAMH, GISWNSGSNGYGDSVK, VGRGGGYFDY, the assay gave 2.94, 3.53, 2.17 (mean 2.88; controls 1 of 9).
For GFTRDDYWMH, GISWNSGSVGYADSVK, VGRGGGYFDY, the assay gave 4.73, 5.35, 5.36 (mean 5.15; controls 7 of 9).
For GFYFDDYAMH, GISWNSGSIGYADSVQ, VWRGGGYFDY, the assay gave 4.07, nd, 5.46 (mean 4.76; controls 3 of 9).
For GFTFDDYAMH, VDSWNSDSIGYADSVK, VGRGGGYFDY, the assay gave nd, nd, nd (controls 2 of 9).
For GFTFDDYAMS, RISWNSGSIGYADSQK, VGRGGGYFDY, the assay gave nd, nd, nd (controls 0 of 9).
For GFTFDDYAMH, GISPNSGSIGYADSAK, VGRGGYYFDY, the assay gave nd, 5.60, nd (controls 2 of 9).
For MFTFDDYAMH, DISWNSGSIGYADSTK, VGRGGGYFDY, the assay gave nd, nd, nd (controls 1 of 9).
For GFTFDDYAMI, GISWYSGSIGYADSVK, VGRGGGYMDY, the assay gave nd, nd, 4.48 (controls 1 of 9).
For GMTFDDYAMH, GISNNSGSIGYADSVK, VGRGGGAFDY, the assay gave nd, 3.37, nd (controls 0 of 9).
For GFTFDCCAMH, GISWNSGSIGYADSVK, VGDGGGYFDY, the assay gave 2.67, 3.02, 2.19 (mean 2.63; controls 2 of 9).
For GFTFDDSAMH, GISWNSGHIGYADSVI, VGRGGGYFDY, the assay gave nd, nd, nd (controls 0 of 9).
For GFTFDDFAMH, GISWDSGSIGYAKSVK, VGRGGGYFDY, the assay gave 3.73, nd, nd (controls 3 of 9).
For GFTFDDMAMH, GISWNRGSIGYADSPK, VGRGGGYFDY, the assay gave nd, 3.79, nd (controls 2 of 9).
For GFTFDDYAMH, GIKWNSGSISYADSVK, VERGGGYFDY, the assay gave nd, nd, nd (controls 0 of 9).
For GFDFDDYAMH, GISWNSGSIGYADYVK, RGRGGGYFDY, the assay gave nd, nd, 4.76 (controls 3 of 9).

The opening 5 entries, copied out:

CDR-H1,CDR-H2,CDR-H3,"replicates, log10 nM",mean log10 Kd (nM),signal with controls
QFTFDDYAMH,GISWNSGSIGCADSVK,VDRGGGYFDY,"nd, 5.75, nd",5.75,0/9
GFTFHDYAMH,GISWNSYSIGYADSVK,VGRGGEYFDY,"nd, nd, nd",nd,0/9
GFTFDDYAMH,GISCNSGSLGYSDSVK,VGRGGGYFDY,"3.12, 3.34, 3.97",3.48,1/9
KFTFDDYAMH,SISKNSGSIGYADSVK,VGRGGGYFDY,"nd, 4.36, nd",4.36,1/9
GFVFDDYATH,GISWNSGSIGYADSVK,VGRSGGYFDY,"3.75, 4.57, nd",4.16,2/9

For reference, the parent read 1.86 as the reference entry and 0.88 as a member of this library.
Nonspecific signal, from three strains lacking the peptide, appeared in 21% of pairings of library AAYL51, centred on 4.54 (5% of these signals below 3.26); values are not corrected for it. Also given: how often the same scFv was detected with the empty control strains.